# Antibody variant affinities, Ab-14 heavy chain, assay 1

From the AlphaSeq antibody data of Engelhart et al. 2022 (doi:10.1038/s41597-022-01779-4), copy in the FLAb collection.

All variants were tested on one target, the spike HR2 peptide PDVDLGDISGINAS (SARS-CoV-2).

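The library (AAYL49) carries one to three amino acid substitutions per variant, with no insertions or deletions. The assay is AlphaSeq: two haploid yeast populations carry antibody and antigen on their surface. Binding brings cells together so that they mate, and sequencing counts the barcode pairs among the diploids. The ratio of observed to expected reads was calibrated, replicate by replicate, on BCL2-family standards whose Kd was known from biolayer interferometry. Each pool was mated in three replicate cultures.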

Ab-14 is the parent antibody, in scFv form: VH, then a (GGGGS)3 linker, then VL. The light chain is unchanged in all variants.
VH: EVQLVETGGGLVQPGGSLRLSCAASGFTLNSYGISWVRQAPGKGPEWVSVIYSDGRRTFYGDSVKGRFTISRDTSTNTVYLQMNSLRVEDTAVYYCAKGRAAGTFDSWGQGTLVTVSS
VL: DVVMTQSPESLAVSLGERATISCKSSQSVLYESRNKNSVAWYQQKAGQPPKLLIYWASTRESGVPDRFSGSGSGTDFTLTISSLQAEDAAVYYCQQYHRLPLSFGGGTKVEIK

Changes read parent residue, position, new residue, counted from the first residue of the VH shown. The read-out is the apparent dissociation constant on a log10 scale (nM): the lower, the stronger. Averages over replicates are reported, and they cover detected replicates only. "ND" marks a missing value. The strain was present, yet no cells mated with the target were sequenced in that replicate, which points to weak or no binding. For reference, the parent read 0.65 as the reference entry and 4.11 (one replicate of three) as a member of this library. Background: pairings of library AAYL49 with three empty control strains gave a value in 15% of cases (median 4.06, 5th percentile 2.83). Values in that range, when seen in few replicates, are hard to tell from nonspecific mating. The control count says in how many pairings with the empty strains this scFv gave a signal, with their mean in brackets.

changes | log10 Kd, replicates | log10 Kd (nM), mean | control signals
D54P+F59P+S63K | 3.09 / ND / ND | 3.09 | 1 of 9 (3.61)
T28D | 1.11 / 1.29 / 0.98 | 1.13 | 2 of 9 (4.53)
N30D+S35R+D54Q | ND / ND / ND | ND | 3 of 9 (4.14)
I51R+R57T | ND / ND / ND | ND | 0 of 9
V50L+K65M+D106S | 5.20 / ND / 4.79 | 4.99 | 5 of 9 (4.76)
Y32D+G55M+T104W | ND / ND / 2.88 | 2.88 | 2 of 9 (3.23)
V50F+R56I | ND / ND / ND | ND | 0 of 9
T58V+G99S | 1.20 / 1.35 / 1.15 | 1.23 | 2 of 9 (4.52)
Y32H+D54E+R56K | ND / 3.55 / 4.46 | 4.01 | 4 of 9 (4.18)
T28K+Y60L+A101H | 2.86 / 2.61 / 2.87 | 2.78 | 3 of 9 (3.74)
G33I+D62Y+S107T | ND / ND / ND | ND | 0 of 9
S31E+R56K+V64L | 1.71 / 1.68 / 2.21 | 1.87 | 3 of 9 (4.27)
G55K+Y60Q | ND / ND / ND | ND | 1 of 9 (3.26)
V50Y+S53L+G61Q | ND / ND / ND | ND | 0 of 9
S31H+I34N+F59S | ND / ND / ND | ND | 0 of 9
I34S+V64D+S107H | ND / ND / ND | ND | 3 of 9 (4.85)
A102M+G103S+F105M | ND / ND / ND | ND | 0 of 9
F27M+N30Y+R100S | 1.42 / 1.65 / 2.01 | 1.69 | 0 of 9
L29Y+D62P+T104R | ND / ND / ND | ND | 0 of 9
L29N+R56K | ND / ND / ND | ND | 0 of 9
S31C+G103L+T104A | ND / ND / 3.67 | 3.67 | 1 of 9 (4.15)
G33Y+V64R+F105P | ND / ND / 3.19 | 3.19 | 1 of 9 (2.24)
D62L+G99E+A102E | ND / ND / ND | ND | 2 of 9 (3.13)
V64T+A102G+D106P | ND / ND / ND | ND | 2 of 9 (3.42)
N30V+Y32V+Y60H | ND / ND / ND | ND | 3 of 9 (4.61)
G26A+G33H+G61R | ND / ND / ND | ND | 1 of 9 (4.05)
L29P+T58K+D106K | ND / ND / ND | ND | 0 of 9
G26D+G33N | ND / 3.29 / ND | 3.29 | 1 of 9 (3.07)
N30K+G33K+S35L | ND / ND / 5.81 | 5.81 | 2 of 9 (3.71)
F27N+R100L+A101K | 2.43 / 1.29 / 2.64 | 2.12 | 0 of 9
L29P+N30G | ND / 3.25 / 3.91 | 3.58 | 5 of 9 (4.45)
F59P+D62I+T104A | ND / ND / ND | ND | 1 of 9 (3.60)
Y32A+G61H+S63T | 5.63 / 3.86 / 3.04 | 4.18 | 3 of 9 (4.20)
I34M+D62Y+V64H | ND / ND / ND | ND | 3 of 9 (4.81)
G26E+T58I+G103R | ND / ND / ND | ND | 1 of 9 (3.71)
I51S+D54C+G103F | 3.29 / ND / 5.98 | 4.64 | 3 of 9 (4.23)

A selection of 6 entries from above:

| changes | log10 Kd, replicates | log10 Kd (nM), mean | control signals |
|---|---|---|---|
| T58V+G99S | 1.20 / 1.35 / 1.15 | 1.23 | 2 of 9 (4.52) |
| V64T+A102G+D106P | ND / ND / ND | ND | 2 of 9 (3.42) |
| T28K+Y60L+A101H | 2.86 / 2.61 / 2.87 | 2.78 | 3 of 9 (3.74) |
| L29N+R56K | ND / ND / ND | ND | 0 of 9 |
| S31E+R56K+V64L | 1.71 / 1.68 / 2.21 | 1.87 | 3 of 9 (4.27) |
| G26D+G33N | ND / 3.29 / ND | 3.29 | 1 of 9 (3.07) |